{
  "sequences": {"note": "Amino acid sequences for entries named in this document (tags omitted). A change or cut given only in a name is not applied to a line headed by its entry.", "UniProt P31749": "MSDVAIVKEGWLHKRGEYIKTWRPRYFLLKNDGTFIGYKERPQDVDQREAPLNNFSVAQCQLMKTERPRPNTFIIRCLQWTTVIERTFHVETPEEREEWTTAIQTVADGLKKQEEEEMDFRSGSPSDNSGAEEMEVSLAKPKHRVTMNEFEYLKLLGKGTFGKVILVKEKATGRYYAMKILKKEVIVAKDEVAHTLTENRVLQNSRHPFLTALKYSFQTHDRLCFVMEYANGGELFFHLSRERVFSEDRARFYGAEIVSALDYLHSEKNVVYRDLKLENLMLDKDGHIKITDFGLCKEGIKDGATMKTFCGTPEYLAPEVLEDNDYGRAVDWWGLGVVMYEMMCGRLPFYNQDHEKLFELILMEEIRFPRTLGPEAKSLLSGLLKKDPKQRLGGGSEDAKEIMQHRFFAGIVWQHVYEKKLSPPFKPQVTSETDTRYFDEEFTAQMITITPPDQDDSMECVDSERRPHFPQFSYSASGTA", "UniProt P51813": "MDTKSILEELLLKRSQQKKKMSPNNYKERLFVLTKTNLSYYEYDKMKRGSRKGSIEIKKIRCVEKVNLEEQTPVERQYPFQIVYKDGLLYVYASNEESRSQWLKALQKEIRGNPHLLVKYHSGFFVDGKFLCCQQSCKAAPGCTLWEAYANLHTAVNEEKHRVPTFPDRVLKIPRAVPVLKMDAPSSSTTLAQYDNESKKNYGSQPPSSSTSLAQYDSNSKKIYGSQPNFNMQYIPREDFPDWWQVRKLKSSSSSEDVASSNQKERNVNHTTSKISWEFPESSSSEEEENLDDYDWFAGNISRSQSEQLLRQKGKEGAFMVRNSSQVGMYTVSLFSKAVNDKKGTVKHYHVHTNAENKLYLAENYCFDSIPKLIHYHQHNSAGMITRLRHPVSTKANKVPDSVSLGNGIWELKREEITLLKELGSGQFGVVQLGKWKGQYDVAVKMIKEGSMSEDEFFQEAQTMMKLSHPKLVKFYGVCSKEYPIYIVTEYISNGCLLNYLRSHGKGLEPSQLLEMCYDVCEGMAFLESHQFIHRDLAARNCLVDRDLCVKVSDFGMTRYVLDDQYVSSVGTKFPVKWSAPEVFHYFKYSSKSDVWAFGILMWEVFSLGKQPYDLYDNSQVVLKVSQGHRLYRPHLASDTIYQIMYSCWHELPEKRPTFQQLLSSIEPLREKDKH", "UniProt Q8NE63": "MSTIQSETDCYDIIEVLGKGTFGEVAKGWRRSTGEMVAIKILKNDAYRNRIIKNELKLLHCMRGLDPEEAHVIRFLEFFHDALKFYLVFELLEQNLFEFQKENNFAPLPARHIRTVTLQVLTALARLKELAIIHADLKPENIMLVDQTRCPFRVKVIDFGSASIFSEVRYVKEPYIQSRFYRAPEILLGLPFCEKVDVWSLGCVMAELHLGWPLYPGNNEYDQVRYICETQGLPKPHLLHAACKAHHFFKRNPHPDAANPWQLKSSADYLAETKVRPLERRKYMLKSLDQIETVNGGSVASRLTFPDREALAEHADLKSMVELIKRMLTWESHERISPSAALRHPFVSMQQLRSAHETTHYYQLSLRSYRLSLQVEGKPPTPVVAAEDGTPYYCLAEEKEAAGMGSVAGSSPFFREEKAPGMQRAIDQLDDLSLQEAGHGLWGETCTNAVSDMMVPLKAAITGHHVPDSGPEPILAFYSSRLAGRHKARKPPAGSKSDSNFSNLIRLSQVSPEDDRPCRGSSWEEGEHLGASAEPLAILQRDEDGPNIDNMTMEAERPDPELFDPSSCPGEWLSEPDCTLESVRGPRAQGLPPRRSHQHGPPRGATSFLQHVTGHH", "UniProt Q9NWZ3, whole entry, looked up": "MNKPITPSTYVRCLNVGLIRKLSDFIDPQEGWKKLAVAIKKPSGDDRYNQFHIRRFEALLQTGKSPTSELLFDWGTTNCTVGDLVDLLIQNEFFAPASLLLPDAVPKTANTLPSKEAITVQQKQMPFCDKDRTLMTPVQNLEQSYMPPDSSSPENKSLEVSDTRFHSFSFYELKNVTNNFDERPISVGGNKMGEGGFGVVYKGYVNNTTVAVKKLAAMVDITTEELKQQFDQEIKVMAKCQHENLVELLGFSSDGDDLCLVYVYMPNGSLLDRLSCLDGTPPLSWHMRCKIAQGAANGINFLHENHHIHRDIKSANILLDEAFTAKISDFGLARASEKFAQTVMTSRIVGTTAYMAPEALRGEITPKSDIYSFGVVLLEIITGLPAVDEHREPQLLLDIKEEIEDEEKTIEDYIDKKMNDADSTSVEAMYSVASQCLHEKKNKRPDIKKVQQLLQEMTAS", "UniProt P07948": "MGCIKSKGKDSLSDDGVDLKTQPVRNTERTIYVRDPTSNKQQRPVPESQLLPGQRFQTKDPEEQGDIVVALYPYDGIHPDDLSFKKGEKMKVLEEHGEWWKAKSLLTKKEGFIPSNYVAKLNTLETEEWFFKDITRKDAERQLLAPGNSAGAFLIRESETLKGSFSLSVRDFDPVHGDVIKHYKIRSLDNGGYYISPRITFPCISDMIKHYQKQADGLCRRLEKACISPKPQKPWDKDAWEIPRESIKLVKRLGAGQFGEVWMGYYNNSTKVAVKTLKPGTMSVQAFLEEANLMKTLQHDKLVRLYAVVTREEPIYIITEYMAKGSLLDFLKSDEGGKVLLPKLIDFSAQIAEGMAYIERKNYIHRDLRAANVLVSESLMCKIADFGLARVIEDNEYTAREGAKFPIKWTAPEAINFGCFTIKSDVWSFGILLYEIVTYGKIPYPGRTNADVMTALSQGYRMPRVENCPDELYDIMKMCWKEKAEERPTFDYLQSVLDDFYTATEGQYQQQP", "UniProt Q9Y2U5": "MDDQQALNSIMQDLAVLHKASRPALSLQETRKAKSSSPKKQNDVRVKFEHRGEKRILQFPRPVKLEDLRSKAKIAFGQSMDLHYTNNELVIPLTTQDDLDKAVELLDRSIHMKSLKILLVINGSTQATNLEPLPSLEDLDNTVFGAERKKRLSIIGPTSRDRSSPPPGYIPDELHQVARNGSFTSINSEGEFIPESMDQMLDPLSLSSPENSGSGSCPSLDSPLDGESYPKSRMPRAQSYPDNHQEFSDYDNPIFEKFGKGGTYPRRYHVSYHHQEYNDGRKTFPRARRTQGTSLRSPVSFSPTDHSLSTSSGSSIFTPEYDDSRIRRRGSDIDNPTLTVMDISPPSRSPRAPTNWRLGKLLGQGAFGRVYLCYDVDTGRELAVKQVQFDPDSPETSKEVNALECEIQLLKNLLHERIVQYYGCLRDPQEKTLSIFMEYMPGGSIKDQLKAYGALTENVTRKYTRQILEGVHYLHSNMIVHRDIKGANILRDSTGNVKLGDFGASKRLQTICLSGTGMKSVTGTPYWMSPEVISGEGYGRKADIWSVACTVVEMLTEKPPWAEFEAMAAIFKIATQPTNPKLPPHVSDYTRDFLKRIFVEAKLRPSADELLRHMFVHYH", "UniProt Q15759, whole entry, looked up": "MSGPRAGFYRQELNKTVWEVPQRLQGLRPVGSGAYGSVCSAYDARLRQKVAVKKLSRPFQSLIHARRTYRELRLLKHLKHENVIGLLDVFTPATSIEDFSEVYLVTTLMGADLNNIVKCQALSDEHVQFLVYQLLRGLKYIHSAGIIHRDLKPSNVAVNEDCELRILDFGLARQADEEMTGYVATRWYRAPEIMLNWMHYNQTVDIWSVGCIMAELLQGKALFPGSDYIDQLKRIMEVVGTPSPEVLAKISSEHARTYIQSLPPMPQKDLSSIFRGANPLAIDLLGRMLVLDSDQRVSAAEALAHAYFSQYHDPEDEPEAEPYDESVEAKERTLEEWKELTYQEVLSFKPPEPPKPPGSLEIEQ", "UniProt O15264": "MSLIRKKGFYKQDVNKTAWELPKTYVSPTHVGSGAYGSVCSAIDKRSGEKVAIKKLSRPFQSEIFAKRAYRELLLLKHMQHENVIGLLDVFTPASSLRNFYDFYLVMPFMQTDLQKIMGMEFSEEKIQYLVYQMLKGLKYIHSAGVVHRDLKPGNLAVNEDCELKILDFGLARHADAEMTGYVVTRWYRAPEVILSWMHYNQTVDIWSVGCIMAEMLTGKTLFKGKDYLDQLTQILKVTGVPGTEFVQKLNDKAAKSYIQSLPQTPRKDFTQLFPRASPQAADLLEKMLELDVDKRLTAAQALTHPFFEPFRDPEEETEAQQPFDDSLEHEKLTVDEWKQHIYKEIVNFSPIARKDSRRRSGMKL", "UniProt Q16644, whole entry, looked up": "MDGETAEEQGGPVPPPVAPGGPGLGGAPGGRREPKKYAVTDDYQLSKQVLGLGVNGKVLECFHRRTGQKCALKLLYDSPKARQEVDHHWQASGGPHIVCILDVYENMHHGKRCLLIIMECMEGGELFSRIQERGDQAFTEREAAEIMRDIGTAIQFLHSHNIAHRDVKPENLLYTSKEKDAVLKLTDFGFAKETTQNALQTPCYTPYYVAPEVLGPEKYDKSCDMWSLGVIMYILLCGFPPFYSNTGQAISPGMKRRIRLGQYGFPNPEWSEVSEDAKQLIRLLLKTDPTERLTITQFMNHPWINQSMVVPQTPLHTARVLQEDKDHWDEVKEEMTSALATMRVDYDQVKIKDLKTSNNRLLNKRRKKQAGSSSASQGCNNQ", "UniProt Q9P289": "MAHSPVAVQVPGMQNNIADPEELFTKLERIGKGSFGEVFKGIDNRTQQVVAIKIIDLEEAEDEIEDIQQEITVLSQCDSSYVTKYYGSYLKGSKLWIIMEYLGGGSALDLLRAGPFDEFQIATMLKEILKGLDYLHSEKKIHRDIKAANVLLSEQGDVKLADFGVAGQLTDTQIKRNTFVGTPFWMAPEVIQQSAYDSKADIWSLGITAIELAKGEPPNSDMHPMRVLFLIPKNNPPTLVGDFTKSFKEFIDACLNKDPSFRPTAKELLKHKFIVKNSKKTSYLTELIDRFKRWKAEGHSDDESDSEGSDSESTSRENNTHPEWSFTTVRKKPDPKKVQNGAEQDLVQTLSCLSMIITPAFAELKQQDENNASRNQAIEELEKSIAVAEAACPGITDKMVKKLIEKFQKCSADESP", "UniProt O15146": "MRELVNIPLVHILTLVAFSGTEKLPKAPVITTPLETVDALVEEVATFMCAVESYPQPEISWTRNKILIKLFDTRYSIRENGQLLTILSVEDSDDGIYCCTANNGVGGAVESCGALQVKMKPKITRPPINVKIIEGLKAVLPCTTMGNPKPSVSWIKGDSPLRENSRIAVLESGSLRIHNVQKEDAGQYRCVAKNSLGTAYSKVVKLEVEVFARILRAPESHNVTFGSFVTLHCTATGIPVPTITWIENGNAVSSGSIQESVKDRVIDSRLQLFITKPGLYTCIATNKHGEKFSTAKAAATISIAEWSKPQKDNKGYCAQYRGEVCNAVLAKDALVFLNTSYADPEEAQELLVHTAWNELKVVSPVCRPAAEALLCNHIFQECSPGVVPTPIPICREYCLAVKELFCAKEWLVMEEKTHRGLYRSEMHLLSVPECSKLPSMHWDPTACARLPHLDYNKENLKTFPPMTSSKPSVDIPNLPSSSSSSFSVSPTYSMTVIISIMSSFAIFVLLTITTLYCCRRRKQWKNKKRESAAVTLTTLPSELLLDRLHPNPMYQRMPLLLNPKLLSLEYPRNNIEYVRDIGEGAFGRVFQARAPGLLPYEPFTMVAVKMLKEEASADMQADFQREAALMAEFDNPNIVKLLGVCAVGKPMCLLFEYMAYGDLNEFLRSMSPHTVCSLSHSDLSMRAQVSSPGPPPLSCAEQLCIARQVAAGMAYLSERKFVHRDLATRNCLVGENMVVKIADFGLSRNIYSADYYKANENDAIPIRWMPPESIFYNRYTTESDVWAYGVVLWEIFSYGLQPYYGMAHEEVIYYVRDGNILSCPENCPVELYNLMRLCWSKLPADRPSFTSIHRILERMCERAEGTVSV", "UniProt Q8TDX7": "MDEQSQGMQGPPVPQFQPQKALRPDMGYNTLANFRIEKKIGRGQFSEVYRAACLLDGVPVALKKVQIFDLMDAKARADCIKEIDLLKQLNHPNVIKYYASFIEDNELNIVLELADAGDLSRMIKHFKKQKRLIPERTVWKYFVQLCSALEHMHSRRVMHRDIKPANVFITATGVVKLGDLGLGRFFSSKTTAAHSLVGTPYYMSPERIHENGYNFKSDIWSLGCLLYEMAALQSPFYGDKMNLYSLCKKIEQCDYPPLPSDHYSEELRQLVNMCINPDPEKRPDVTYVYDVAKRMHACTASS", "UniProt P51817": "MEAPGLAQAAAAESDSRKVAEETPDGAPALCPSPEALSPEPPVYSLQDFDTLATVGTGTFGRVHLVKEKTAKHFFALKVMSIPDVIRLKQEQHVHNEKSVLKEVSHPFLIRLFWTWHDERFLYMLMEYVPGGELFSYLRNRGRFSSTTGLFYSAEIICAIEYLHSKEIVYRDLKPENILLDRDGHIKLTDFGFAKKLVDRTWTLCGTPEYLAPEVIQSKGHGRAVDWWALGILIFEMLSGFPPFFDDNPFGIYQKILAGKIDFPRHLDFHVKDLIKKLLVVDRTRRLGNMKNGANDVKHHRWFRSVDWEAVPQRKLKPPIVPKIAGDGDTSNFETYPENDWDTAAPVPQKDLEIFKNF"},
  "source": "the kinase profiling compilation of Christmann-Franck et al. (2016)",
  "experiment_in_all_cases": "radiometric filter-binding kinase assay, Kinase HotSpot",
  "settings_in_all_cases": "compound 0.5 µM; ATP 10 µM",
  "key": {"ACVRL1 (human)": {"target": "ACVRL1 (human) (UniProt P37023)"}, "AKT1 (human)": {"target": "AKT1 (human) (UniProt P31749)"}, "BMX (human)": {"target": "BMX (human) (UniProt P51813)"}, "BRAF (human)": {"target": "BRAF (human) (UniProt P15056)"}, "BRSK2 (human)": {"target": "BRSK2 (human) (UniProt Q8IWQ3)"}, "CAMK1D (human)": {"target": "CAMK1D (human) (UniProt Q8IU85)"}, "CAMK4 (human)": {"target": "CAMK4 (human) (UniProt Q16566)"}, "CAMKK2 (human)": {"target": "CAMKK2 (human) (UniProt Q96RR4)"}, "CSF1R (human)": {"target": "CSF1R (human) (UniProt P07333)"}, "DSTYK (human)": {"target": "DSTYK (human) (UniProt Q6XUX3)"}, "EGFR (human)": {"target": "EGFR (human) (UniProt P00533)"}, "FGFR2 (human)": {"target": "FGFR2 (human) (UniProt P21802)"}, "FGR (human)": {"target": "FGR (human) (UniProt P09769)"}, "GRK6 (human)": {"target": "GRK6 (human) (UniProt P43250)"}, "GSK3A (human)": {"target": "GSK3A (human) (UniProt P49840)"}, "HIPK4 (human)": {"target": "HIPK4 (human) (UniProt Q8NE63)"}, "INSR (human)": {"target": "INSR (human) (UniProt P06213)"}, "IRAK4 (human)": {"target": "IRAK4 (human) (UniProt Q9NWZ3)"}, "LRRK2 (human)": {"target": "LRRK2 (human) (UniProt Q5S007)"}, "LYN (human)": {"target": "LYN (human) (UniProt P07948)"}, "MAP3K2 (human)": {"target": "MAP3K2 (human) (UniProt Q9Y2U5)"}, "MAPK11 (human)": {"target": "MAPK11 (human) (UniProt Q15759)"}, "MAPK13 (human)": {"target": "MAPK13 (human) (UniProt O15264)"}, "MAPKAPK3 (human)": {"target": "MAPKAPK3 (human) (UniProt Q16644)"}, "MARK3 (human)": {"target": "MARK3 (human) (UniProt P27448)"}, "MST4 (human)": {"target": "MST4 (human) (UniProt Q9P289)"}, "MUSK (human)": {"target": "MUSK (human) (UniProt O15146)"}, "NEK2 (human)": {"target": "NEK2 (human) (UniProt P51955)"}, "NEK7 (human)": {"target": "NEK7 (human) (UniProt Q8TDX7)"}, "NUAK1 (human)": {"target": "NUAK1 (human) (UniProt O60285)"}, "NUAK2 (human)": {"target": "NUAK2 (human) (UniProt Q9H093)"}, "PAK1 (human)": {"target": "PAK1 (human) (UniProt Q13153)"}, "PAK3 (human)": {"target": "PAK3 (human) (UniProt O75914)"}, "PIM3 (human)": {"target": "PIM3 (human) (UniProt Q86V86)"}, "PRKCB2 (human)": {"target": "PRKCB2 (human) (UniProt P05771)"}, "PRKX (human)": {"target": "PRKX (human) (UniProt P51817)"}, "RPS6KA1 KD1 KD2 (human)": {"target": "RPS6KA1 KD1 KD2 (human) (UniProt Q15418)"}, "RPS6KA2 KD1 KD2 (human)": {"target": "RPS6KA2 KD1 KD2 (human) (UniProt Q15349)"}, "STK25 (human)": {"target": "STK25 (human) (UniProt O00506)"}, "STK3 (human)": {"target": "STK3 (human) (UniProt Q13188)"}, "STK4 (human)": {"target": "STK4 (human) (UniProt Q13043)"}, "SYK (human)": {"target": "SYK (human) (UniProt P43405)"}},
  "note": "Where “and” joins values, the source holds several entries; their conditions need not be identical. Identical values can stand only once.",
  "data": [
    {"smiles": "CO[C@H]1[C@@H](OC)C[C@H](C)[C@@H](OC)C2=CC(=O)C=C(NC(=O)/C(C)=C\\C=C/[C@H](OC)[C@@H](OC(N)=O)/C(C)=C\\[C@@H]1C)C2=O", "values": [
      {"measurement": "residual activity", "setting": "ACVRL1 (human)", "result": 101, "unit": "%"},
      {"measurement": "residual activity", "setting": "AKT1 (human)", "result": 93.3, "unit": "%"},
      {"measurement": "residual activity", "setting": "BMX (human)", "result": 101, "unit": "%"},
      {"measurement": "residual activity", "setting": "BRAF (human)", "result": 95.7, "unit": "%"},
      {"measurement": "residual activity", "setting": "BRSK2 (human)", "result": 95.2, "unit": "%"},
      {"measurement": "residual activity", "setting": "CAMK1D (human)", "result": 92.8, "unit": "%"},
      {"measurement": "residual activity", "setting": "CAMK4 (human)", "result": 97.7, "unit": "%"},
      {"measurement": "residual activity", "setting": "CAMKK2 (human)", "result": 97.3, "unit": "%"},
      {"measurement": "residual activity", "setting": "CSF1R (human)", "result": 104, "unit": "%"},
      {"measurement": "residual activity", "setting": "DSTYK (human)", "result": 110, "unit": "%"},
      {"measurement": "residual activity", "setting": "EGFR (human)", "result": 95.1, "unit": "%"},
      {"measurement": "residual activity", "setting": "FGFR2 (human)", "result": 110, "unit": "%"},
      {"measurement": "residual activity", "setting": "FGR (human)", "result": 90.3, "unit": "%"},
      {"measurement": "residual activity", "setting": "GRK6 (human)", "result": 106, "unit": "%"},
      {"measurement": "residual activity", "setting": "GSK3A (human)", "result": 113, "unit": "%"},
      {"measurement": "residual activity", "setting": "HIPK4 (human)", "result": 108, "unit": "%"},
      {"measurement": "residual activity", "setting": "INSR (human)", "result": 95.6, "unit": "%"},
      {"measurement": "residual activity", "setting": "IRAK4 (human)", "result": 105, "unit": "%"},
      {"measurement": "residual activity", "setting": "LRRK2 (human)", "result": 92, "unit": "%"},
      {"measurement": "residual activity", "setting": "LYN (human)", "result": "101% and 109%"},
      {"measurement": "residual activity", "setting": "MAP3K2 (human)", "result": 102, "unit": "%"},
      {"measurement": "residual activity", "setting": "MAPK11 (human)", "result": 95.9, "unit": "%"},
      {"measurement": "residual activity", "setting": "MAPK13 (human)", "result": 104, "unit": "%"},
      {"measurement": "residual activity", "setting": "MAPKAPK3 (human)", "result": 105, "unit": "%"},
      {"measurement": "residual activity", "setting": "MARK3 (human)", "result": 112, "unit": "%"},
      {"measurement": "residual activity", "setting": "MST4 (human)", "result": 85.3, "unit": "%"},
      {"measurement": "residual activity", "setting": "MUSK (human)", "result": 95.2, "unit": "%"},
      {"measurement": "residual activity", "setting": "NEK2 (human)", "result": 102, "unit": "%"},
      {"measurement": "residual activity", "setting": "NEK7 (human)", "result": 100, "unit": "%"},
      {"measurement": "residual activity", "setting": "NUAK1 (human)", "result": 90.1, "unit": "%"},
      {"measurement": "residual activity", "setting": "NUAK2 (human)", "result": 106, "unit": "%"},
      {"measurement": "residual activity", "setting": "PAK1 (human)", "result": 94.1, "unit": "%"},
      {"measurement": "residual activity", "setting": "PAK3 (human)", "result": 98.3, "unit": "%"},
      {"measurement": "residual activity", "setting": "PIM3 (human)", "result": 98.2, "unit": "%"},
      {"measurement": "residual activity", "setting": "PRKCB2 (human)", "result": 96.9, "unit": "%"},
      {"measurement": "residual activity", "setting": "PRKX (human)", "result": 97.2, "unit": "%"},
      {"measurement": "residual activity", "setting": "RPS6KA1 KD1 KD2 (human)", "result": 76.8, "unit": "%"},
      {"measurement": "residual activity", "setting": "RPS6KA2 KD1 KD2 (human)", "result": 94.2, "unit": "%"},
      {"measurement": "residual activity", "setting": "STK25 (human)", "result": 99, "unit": "%"},
      {"measurement": "residual activity", "setting": "STK3 (human)", "result": 95, "unit": "%"},
      {"measurement": "residual activity", "setting": "STK4 (human)", "result": 95.7, "unit": "%"},
      {"measurement": "residual activity", "setting": "SYK (human)", "result": 89.5, "unit": "%"}
    ]}
  ]
}
